1 compound from patent US4959393A, “Skin depigmental agent” (priority 1988, dated 1990) can be followed below.

This series can be described thus: in vivo. The conditions noted are these: mouse. As for the experimental part: Resorcinol derivatives or hydroquinone for comparison was dissolved in a physiological saline solution, which was subjected to peroral (p.o.), intraperitoneal (i.p.) and subcutaneous (s.c.) dosages against a group of ten ddy male mice. The life or death of the mice before 24 hours was observed. The value of LD50 was calculated according to the Litchfield-Wilcoxom method using the above results.

The structures appear in SMILES notation.

For `Oc1ccc(O)cc1` [hydroquinone, reference compound], the median lethal dose (LD50) at 24 h is, setting by setting: (ip) 144 mg/kg; (po) 489 mg/kg; (sc) 339 mg/kg.

By LD50 is commonly meant the dose at which mortality reaches 50%. A lower LD50 goes with a more toxic substance.
